The source of these data is ChEMBL document CHEMBL1153997, “Discovery of oxazolo[4,5-b]pyridines and related heterocyclic analogs as novel SIRT1 activators” (Bioorg Med Chem Lett, 2009).

This assay deals with T1, NAD-dependent protein deacetylase sirtuin-1 (Homo sapiens) (UniProt Q96EB6).
T1 sequence (whole entry): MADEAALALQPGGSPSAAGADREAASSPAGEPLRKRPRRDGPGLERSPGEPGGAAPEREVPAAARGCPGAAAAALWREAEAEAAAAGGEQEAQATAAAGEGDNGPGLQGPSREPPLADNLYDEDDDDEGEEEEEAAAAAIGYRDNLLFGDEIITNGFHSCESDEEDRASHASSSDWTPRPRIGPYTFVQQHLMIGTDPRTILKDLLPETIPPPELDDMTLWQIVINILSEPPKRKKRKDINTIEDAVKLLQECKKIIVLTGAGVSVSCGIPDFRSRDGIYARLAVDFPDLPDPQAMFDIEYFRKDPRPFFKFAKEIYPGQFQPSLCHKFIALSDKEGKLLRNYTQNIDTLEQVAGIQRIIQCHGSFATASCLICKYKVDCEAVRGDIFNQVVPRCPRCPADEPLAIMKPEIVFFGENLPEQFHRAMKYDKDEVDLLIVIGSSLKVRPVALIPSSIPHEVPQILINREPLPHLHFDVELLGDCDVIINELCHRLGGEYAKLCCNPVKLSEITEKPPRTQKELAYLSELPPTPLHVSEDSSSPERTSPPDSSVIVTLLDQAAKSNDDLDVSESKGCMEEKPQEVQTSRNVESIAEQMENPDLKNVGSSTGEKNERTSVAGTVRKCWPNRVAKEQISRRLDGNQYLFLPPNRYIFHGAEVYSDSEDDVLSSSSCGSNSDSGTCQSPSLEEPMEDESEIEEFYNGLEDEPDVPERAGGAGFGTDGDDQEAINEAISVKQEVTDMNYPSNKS
Put plainly: Activation of human SIRT1 expressed in Escherichia coli BL21 (DE3) assessed as concentration required to increase 50% enzyme activity by fluorescence polarization assay.

Turning to `Oc1ccc(/C=C/c2cc(O)cc(O)c2)cc1`, the EC1.5 was found to be 46 µM.
